The target in assay [1] is T1, GluA2flip(Q) (Mus musculus, UniProt P23819, DEL765-802). The assay is described as follows: Concentration-dependent binding of fluorophore-ligand conjugates, confocal live imaging of HEK293T cells expressing GluA2. The following applies: for Kd: read-out: dissociation constant (Kd) / Affinity to GluA2, HEK293T cells expressing GluA2flip(Q), cell-surface fluorescence, mean ± SEM, n = 3.

The chains behind the UniProt entries cited, without tags or fusion partners. A line that says so, or that is headed by a name, gives the form on record, which may keep a tag or linker. Residues count along the entry.
UniProt P23819, with tags, fused parts or gaps isoform 4 DEL765-802 limits assumed: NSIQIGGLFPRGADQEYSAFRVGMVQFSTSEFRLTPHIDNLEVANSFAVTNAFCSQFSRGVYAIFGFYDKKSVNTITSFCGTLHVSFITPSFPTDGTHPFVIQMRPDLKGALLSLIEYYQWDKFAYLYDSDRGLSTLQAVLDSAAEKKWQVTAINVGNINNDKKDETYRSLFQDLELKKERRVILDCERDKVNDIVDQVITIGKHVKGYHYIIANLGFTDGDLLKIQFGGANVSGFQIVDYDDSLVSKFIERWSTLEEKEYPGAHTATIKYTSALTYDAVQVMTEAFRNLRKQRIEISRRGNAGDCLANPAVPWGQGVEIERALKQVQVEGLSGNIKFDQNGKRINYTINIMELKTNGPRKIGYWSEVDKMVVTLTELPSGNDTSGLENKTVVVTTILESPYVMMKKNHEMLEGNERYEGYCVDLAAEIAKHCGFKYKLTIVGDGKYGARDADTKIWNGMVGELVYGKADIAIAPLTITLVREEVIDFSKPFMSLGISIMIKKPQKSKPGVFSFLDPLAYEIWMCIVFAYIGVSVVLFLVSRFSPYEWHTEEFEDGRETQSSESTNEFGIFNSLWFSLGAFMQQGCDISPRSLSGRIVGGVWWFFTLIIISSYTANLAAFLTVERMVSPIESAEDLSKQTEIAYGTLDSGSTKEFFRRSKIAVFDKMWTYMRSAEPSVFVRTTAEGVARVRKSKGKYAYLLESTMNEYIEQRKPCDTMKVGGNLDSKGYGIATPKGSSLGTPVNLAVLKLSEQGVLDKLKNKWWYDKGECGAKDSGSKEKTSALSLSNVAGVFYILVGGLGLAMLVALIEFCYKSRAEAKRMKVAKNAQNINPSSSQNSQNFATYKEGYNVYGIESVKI
UniProt P42260, 32-908 limits assumed: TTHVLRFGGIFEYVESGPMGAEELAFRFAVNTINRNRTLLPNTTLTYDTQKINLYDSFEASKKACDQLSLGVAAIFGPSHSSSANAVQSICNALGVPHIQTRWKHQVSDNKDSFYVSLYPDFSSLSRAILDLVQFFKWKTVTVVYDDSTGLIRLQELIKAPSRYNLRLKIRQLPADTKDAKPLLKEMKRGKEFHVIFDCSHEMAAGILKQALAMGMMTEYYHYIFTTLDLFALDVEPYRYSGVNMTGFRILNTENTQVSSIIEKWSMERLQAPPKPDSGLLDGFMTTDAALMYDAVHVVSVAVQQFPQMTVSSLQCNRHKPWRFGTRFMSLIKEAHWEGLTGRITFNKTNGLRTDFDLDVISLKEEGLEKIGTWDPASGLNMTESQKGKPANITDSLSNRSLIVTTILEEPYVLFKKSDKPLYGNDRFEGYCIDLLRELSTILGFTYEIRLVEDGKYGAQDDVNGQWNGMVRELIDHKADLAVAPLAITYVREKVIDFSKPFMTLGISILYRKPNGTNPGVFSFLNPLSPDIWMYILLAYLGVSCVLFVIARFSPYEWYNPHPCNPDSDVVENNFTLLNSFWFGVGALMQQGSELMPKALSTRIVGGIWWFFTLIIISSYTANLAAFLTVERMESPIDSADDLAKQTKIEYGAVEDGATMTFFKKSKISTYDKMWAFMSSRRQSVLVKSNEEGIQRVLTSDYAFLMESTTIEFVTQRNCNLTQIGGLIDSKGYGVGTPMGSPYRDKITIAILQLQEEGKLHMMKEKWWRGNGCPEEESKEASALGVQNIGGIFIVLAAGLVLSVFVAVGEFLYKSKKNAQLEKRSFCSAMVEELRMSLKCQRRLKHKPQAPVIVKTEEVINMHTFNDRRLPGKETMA

Assay [2] deals with T1, GluA2flip(Q). The assay is described as follows: Competitive inhibition of PFQX1(AF488) binding by PFQX-amine in HEK293T cells expressing GluA2. The following applies: [PFQX1(AF488)] = 30 nM, HEK293T cells with GluA2.
Assay [3] has as its target GluK2(Q) (Rattus norvegicus, UniProt P42260). The assay is described as follows: Fluorescence Ca2+ assay, inhibition of kainic acid-induced response in HEK293T cells transfected with GluK2(Q). To be noted: 100 µM kainic acid-induced Ca2+ response.

Data on 3 compounds can be found in article PMC12143348, “Rapid and reversible fluorescent probe enables repeated snapshot imaging of AMPA receptors during synaptic plasticity” (Science Advances, 2025).

As a reminder, the IC50 is the concentration that gives 50% inhibition. As a reminder, the Ki is a measure of affinity in units of concentration, obtained from inhibition or displacement.

With `O=C(O)Cn1c(=O)c(=O)[nH]c2cc(C(F)(F)F)c(-n3ccc(CNC(=O)CCOCCOCCOCCOCCNC(=O)c4ccc(-c5c6ccc(=O)cc-6oc6cc(O)ccc56)c(C(=O)O)c4)c3)cc21`, the Kd in assay [1] is 346 nM.
Consider `NCc1ccn(-c2cc3c(cc2C(F)(F)F)[nH]c(=O)c(=O)n3CC(=O)O)c1`, for which the IC50 in assay [2] (read-out: IC50 for inhibition of PFQX1(AF488) binding, n = 3) was found to be 862 nM. In addition, in assay [2] (read-out: Ki (Cheng-Prusoff equation), calculated from IC50), the Ki is 477 nM. Besides, the “inhibitory effect on GluK2” value in assay [3] is “low”.
With `O=C(O)Cn1c(=O)c(=O)[nH]c2cc(C(F)(F)F)c(-n3ccc(CNC(=O)c4ccc(-c5c6ccc(=O)cc-6oc6cc(O)ccc56)c(C(=O)O)c4)c3)cc21`, the “cell-surface fluorescence / affinity to AMPARs (in words)” value in assay [1] (HEK293T cells expressing GluA2) is “high affinity”. The Kd in assay [1] stood at 4.3 nM.
